Assay results reported in patent publication US20240391959A1 (Bicycle, published 2024).

By UniProt entry, the sequences of proteins in these tests, tags left out. Residues count along the entry.
UniProt P02786, 89-760 limits assumed: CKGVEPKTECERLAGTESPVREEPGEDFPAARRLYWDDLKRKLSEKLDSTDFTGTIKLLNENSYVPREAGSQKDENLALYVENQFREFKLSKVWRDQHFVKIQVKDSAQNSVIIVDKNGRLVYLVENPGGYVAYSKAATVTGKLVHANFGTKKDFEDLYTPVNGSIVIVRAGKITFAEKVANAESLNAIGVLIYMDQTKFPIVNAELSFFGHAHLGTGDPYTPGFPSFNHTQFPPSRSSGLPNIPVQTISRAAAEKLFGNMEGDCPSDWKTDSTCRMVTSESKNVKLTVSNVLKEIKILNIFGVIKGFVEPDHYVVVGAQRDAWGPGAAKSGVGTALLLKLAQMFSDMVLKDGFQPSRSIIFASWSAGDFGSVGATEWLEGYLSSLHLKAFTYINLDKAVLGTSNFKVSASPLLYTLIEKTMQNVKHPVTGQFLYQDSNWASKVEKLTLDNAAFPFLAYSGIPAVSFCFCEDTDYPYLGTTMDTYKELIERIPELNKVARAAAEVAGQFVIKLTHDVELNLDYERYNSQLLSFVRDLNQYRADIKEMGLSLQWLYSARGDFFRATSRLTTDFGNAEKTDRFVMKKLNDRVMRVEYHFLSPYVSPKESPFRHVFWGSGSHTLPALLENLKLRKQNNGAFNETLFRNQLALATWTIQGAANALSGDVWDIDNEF

How the values were obtained:
[1] = target: T1, Recombinant human transferrin receptor 1 (TfR1), His6-tagged, a.a. 89-760 (human, UniProt P02786 89-760); experiment: FP competition, competitor BCY15768
T1 construct: range 89-760; SPR used ACRO Biosystems CD1-H5243 (His6, a.a. 89-760); also called Human TfR1; CD71; not shown: His6 tag

[2] = target: T1, Recombinant human transferrin receptor …; experiment: FP competition, competitor BCY15768; remark: listed apart in the source

Ki [1]: 105 nM
Ki [2]: 77 nM
B1: BCY18032 (peptide)
peptide: NXNCSPDAHLGCISYC
modifications: N-methyl-tryptophan [NMeTrp] in N-terminal N[NMeTrp]N; Cys Ci, Cii, Ciii on TATB scaffold

Where two headings read alike, the source gives them in different places.
